Assay results published in ChEMBL document CHEMBL4428027, “3-Hydroxypyrimidine-2,4-diones as Selective Active Site Inhibitors of HIV Reverse Transcriptase-Associated RNase H: Design, Synthesis, and Biochemical Evaluations” (J Med Chem, 2016).

Experiments:
[1] = Selectivity index, ratio of IC50 for HIV integrase to IC50 for inhibition of RNase H activity of full length recombinant HIV1 reverse transcriptase
[2] = system: Human immunodeficiency virus 1; assay: Selectivity index, ratio of IC50 for inhibition of polymerase activity of HIV1 reverse transcriptase to IC50 for inhibition of RNase H activity of full length recombinant HIV1 reverse transcriptase

`COc1ccc(-c2cccc(Nc3cc(=O)n(O)c(=O)[nH]3)c2)cc1` gave a Ratio IC50 [1] greater than 500 and a Ratio IC50 [2] of 32.
`Cc1noc(C)c1-c1ccc(Nc2cc(=O)n(O)c(=O)n2C)cc1` gave a Ratio IC50 [1] of 16.
In the case of `Cn1c(Nc2ccc(-c3cccc(C#N)c3)cc2)cc(=O)n(O)c1=O`, the Ratio IC50 [1] is reported as 25.
`Cn1c(Nc2cccc(-c3cccc(C#N)c3)c2)cc(=O)n(O)c1=O` showed a Ratio IC50 [1] of 6.5.
For `Cc1ccc(-c2cccc(Nc3cc(=O)n(O)c(=O)[nH]3)c2)cc1`, the Ratio IC50 [1] was 116.
In the case of `Cc1ccc(-c2ccc(Nc3cc(=O)n(O)c(=O)[nH]3)cc2)cc1`, the Ratio IC50 [1] is reported as 230 to 233 and the Ratio IC50 [2] is reported as 14.
`COc1ccc(-c2ccccc2Oc2cc(=O)n(O)c(=O)n2C)cc1` showed a Ratio IC50 [1] of 0.43.
`O=c1cc(Nc2cccc(-c3ccc(F)cc3)c2)[nH]c(=O)n1O` showed a Ratio IC50 [1] greater than 500 and a Ratio IC50 [2] of 33.
With `COc1cc(OC)cc(-c2ccc(Nc3cc(=O)n(O)c(=O)[nH]3)cc2)c1` the Ratio IC50 [1] was 184.
Molecule `Cn1c(Nc2cccc(-c3ccccc3)c2)cc(=O)n(O)c1=O` has a Ratio IC50 [1] of 2.6.
For `Cn1c(Oc2cccc(-c3cccc(O)c3)c2)cc(=O)n(O)c1=O`, the Ratio IC50 [1] was 7.9.
With `Cn1c(Oc2ccc(-c3ccc(O)cc3)cc2)cc(=O)n(O)c1=O` the Ratio IC50 [1] was 5.5.
`COc1cccc(OC)c1-c1cccc(Nc2cc(=O)n(O)c(=O)[nH]2)c1` showed a Ratio IC50 [1] of 2.6.
`COc1ccc(-c2ccc(Nc3cc(=O)n(O)c(=O)n3C)cc2)cc1` gave a Ratio IC50 [1] of 1.1.
Molecule `COc1cccc(-c2cccc(Nc3cc(=O)n(O)c(=O)n3C)c2)c1` has a Ratio IC50 [1] of 7.7.
